Results from ChEMBL document CHEMBL1124100, “Structure-activity profile of a series of novel triazoloquinazoline adenosine antagonists” (J Med Chem, 1988).

Organism: Cavia porcellus
Assay: In vitro inhibition of adenylate cyclase activity of synaptoneurosomes from guinea pig cerebral cortex
Format: functional

`CS(=O)(=O)O.Nc1nc2ccc(Cl)cc2c2nc(-c3ccco3)nn12` gave an IC50 of 20 nM.
